# Antibody variant affinities, Ab-14 heavy chain, assay B

Antigen: PDVDLGDISGINAS, a 14-residue peptide of the SARS-CoV-2 spike HR2 region.

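The starting antibody came from a phage panning campaign against this peptide. This is the validation round: designs drawn from the data on random variants, tested in the same kind of assay. Their group label is 14H_En_Gibbs (En: ensemble of fine-tuned language models; Gibbs: Gibbs sampling). Affinity was read by AlphaSeq, a pooled yeast mating assay with surface-displayed partners. The frequency of each diploid, read from paired DNA barcodes, reflects how well the two displayed proteins bind. Each replicate has its own calibration line, from reference interactions of the BCL2 family. Each pool was mated in six replicate cultures.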

Each scFv is VH, a (GGGGS)3 linker, VL, as in the parent Ab-14, and differs from it in the CDRs of the heavy chain only.
VH: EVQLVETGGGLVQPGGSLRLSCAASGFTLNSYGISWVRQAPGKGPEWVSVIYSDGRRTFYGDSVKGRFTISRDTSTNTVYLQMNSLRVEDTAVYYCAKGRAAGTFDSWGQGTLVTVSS
VL: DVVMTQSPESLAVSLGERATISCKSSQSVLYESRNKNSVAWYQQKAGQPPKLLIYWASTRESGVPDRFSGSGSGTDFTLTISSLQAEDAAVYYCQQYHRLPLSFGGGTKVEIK

Variants are written as CDR1, CDR2 and CDR3 of the heavy chain (limits as in the source). Parent: GFTLNSYGIS, VIYSDGRRTFYGDSVK, GRAAGTFDS.
The read-out is the apparent dissociation constant on a log10 scale (nM): the lower, the stronger.
"n.d." marks a missing value. The strain was present, yet no cells mated with the target were sequenced in that replicate, which points to weak or no binding.
The authors averaged sequences with at least three values out of six and counted those with two or fewer as poor binders.
Empty control strains, which show no peptide, gave a signal in 1% of pairings with all heavy chain designs; the median was 2.08 and 95% of these signals were weaker than 0.84. No background was subtracted. For each scFv, signals with the empty controls are counted beside the result, with their mean in brackets.
Of ten entries with the parent sequence, four were seen in most replicates (averages 0.34 to 2.37), three in one and three in none, so single entries are noisy.
The range of this assay differs from that of the first round, and the authors advise against merging the two.

| # | CDR-H1 | CDR-H2 | CDR-H3 | log10 Kd (nM) by replicate | empty controls |
|---|---|---|---|---|---|
| 1 | GFGLNEYGIS | VIYADGVRTAYLQNVK | GEVTGFDQY | n.d. / n.d. / n.d. / n.d. / 2.03 / n.d. | 1 of 18 (1.44) |
| 2 | GFDLDEMGIS | VIYADGRRTAYSNAFK | GNNVYGLMV | n.d. / n.d. / n.d. / n.d. / n.d. / n.d. | 0 of 18 |
| 3 | GFDLNNYGIS | VIYADGLRVEYENKFK | GDVAGTFDS | 0.63 / 0.70 / 1.22 / 0.31 / 0.47 / 0.07 | 0 of 18 |
| 4 | GFDLNEYGVS | VIYADGQRTQYTDKVK | GGFSAAITF | n.d. / n.d. / n.d. / n.d. / n.d. / n.d. | 1 of 18 (3.57) |
| 5 | GFDLQEYGIS | VIYADGARKSYTNSVK | GVWGTTMYV | n.d. / n.d. / n.d. / n.d. / n.d. / n.d. | 0 of 18 |
| 6 | GADLNEYGIS | VIYADGSRTVYADTVK | GKHGGMFDS | 0.47 / 0.06 / -0.27 / 0.61 / -0.11 / -0.03 | 0 of 18 |
| 7 | GFDLKEQGIS | VIYADGMRTGYTDKVK | GQNSNGFKM | n.d. / n.d. / n.d. / n.d. / n.d. / n.d. | 0 of 18 |
| 8 | GFDIQDYGIS | VIYADGSRTAYVNNAK | GLWGATLDV | n.d. / n.d. / n.d. / n.d. / n.d. / n.d. | 0 of 18 |
| 9 | GFDIEDYGIS | VIYADGMRSSYSNSFK | GLQSGNIMV | n.d. / n.d. / n.d. / n.d. / n.d. / n.d. | 0 of 18 |
| 10 | GESLDQYGIS | VIYADGVRTSYTNSVK | GVWAGTFMQ | n.d. / n.d. / n.d. / n.d. / n.d. / n.d. | 0 of 18 |
| 11 | GFDLDEYGIS | VIYADGQRFAYAQQFK | GEAGGAFDL | 0.87 / 0.86 / 0.88 / 0.14 / 0.31 / 0.63 | 0 of 18 |
| 12 | GFDINEYGIS | VIYADGQRESYAESVK | GFNQTINLV | n.d. / n.d. / n.d. / n.d. / n.d. / n.d. | 0 of 18 |
| 13 | GFDIEKYGIS | VIYADGQRVAYDSSVK | GENAGNFHV | n.d. / n.d. / n.d. / n.d. / n.d. / n.d. | 0 of 18 |
| 14 | GFQLNEYGIS | VIYADGMRSEYQDSVK | GSNSSSFDV | n.d. / n.d. / 2.01 / n.d. / n.d. / n.d. | 0 of 18 |
| 15 | GFDLGEYGVS | VIYADGHRAAYSDNVK | GAHSGSVQT | n.d. / n.d. / n.d. / n.d. / n.d. / n.d. | 0 of 18 |
| 16 | GFNLSEYGIS | VIYADGMRSNYADSFK | GKSGNFFID | n.d. / n.d. / n.d. / n.d. / n.d. / n.d. | 0 of 18 |
| 17 | GFKLDEYGIS | VIYADGLRMHYANSVK | GEMAGTFTT | -0.06 / 0.05 / -0.33 / -0.15 / 0.41 / 0.02 | 0 of 18 |
| 18 | GFNLDEYGIS | VIYADGIRTAYKDKVK | GDDILLGWF | n.d. / n.d. / n.d. / n.d. / n.d. / n.d. | 0 of 18 |
| 19 | GFSLDEYGIS | VIYADGLRSKYADKVK | GELSQKGDT | n.d. / n.d. / n.d. / n.d. / n.d. / n.d. | 0 of 18 |
| 20 | GFDLNEYGVS | VIYADGQRTQYTDKVK | GGFSAAITN | 0.07 / -0.10 / 0.26 / 0.71 / -0.42 / 0.10 | 0 of 18 |
| 21 | GFKIDEYGIS | VIYADGIRRAYADNVK | GYTDDAFDM | n.d. / n.d. / n.d. / n.d. / n.d. / n.d. | 0 of 18 |
| 22 | GFSLDEYGIS | VIYADGVRTEYSKNVK | GQVDFKLRG | n.d. / n.d. / n.d. / n.d. / n.d. / n.d. | 0 of 18 |
| 23 | GFGLGEYGIS | VIYADGRRTFYKDDVK | GHFIVYGVD | n.d. / n.d. / n.d. / n.d. / n.d. / n.d. | 0 of 18 |
| 24 | GFNLNEYGIS | VIYADGRRRAVIDNVK | GLVRFDFDL | n.d. / n.d. / n.d. / n.d. / n.d. / n.d. | 0 of 18 |
| 25 | GFDLESYGIS | VIYADGKRSSVSNSVK | GQLGNAFDM | n.d. / n.d. / n.d. / n.d. / n.d. / n.d. | 0 of 18 |
| 26 | GFDLQEYGIS | VIYADGSRTAYVQNVK | GLTLDSYVV | n.d. / n.d. / n.d. / n.d. / n.d. / n.d. | 1 of 18 (0.71) |
| 27 | GADIQEYGIS | VIYADGIRTAYAQNVK | GEYGSQFDE | n.d. / n.d. / n.d. / n.d. / 1.94 / n.d. | 1 of 18 (1.95) |
| 28 | GQDLAEYGIS | VIYADGKRTYYAQDVK | GTNVGQGDT | n.d. / n.d. / n.d. / n.d. / n.d. / n.d. | 0 of 18 |
| 29 | GEDLDEYGIS | VIYADGRRVVYQDQVK | GELAGVFAQ | n.d. / n.d. / n.d. / n.d. / n.d. / n.d. | 0 of 18 |
| 30 | GFSLDEYGIS | VIYADGRRTMYRDKVK | GELGCTIMG | n.d. / n.d. / n.d. / n.d. / n.d. / n.d. | 0 of 18 |
| 31 | GFSLNEYGIS | VIYADGLRTEYAQNVK | GYNSSDLTK | n.d. / n.d. / n.d. / n.d. / n.d. / n.d. | 1 of 18 (1.71) |
| 32 | GFSLDEFGIS | VIYADGMRSAYSQNVK | GQHVGFTVS | n.d. / n.d. / n.d. / n.d. / n.d. / n.d. | 0 of 18 |
| 33 | GDNLDEYGIS | VIYADGHRTAYSDPVK | GEWGVTVGQ | n.d. / n.d. / n.d. / n.d. / n.d. / n.d. | 0 of 18 |
| 34 | GFDLNEYGIS | VIYADGKRMAYSNKVK | GLMAGTMID | n.d. / n.d. / n.d. / n.d. / n.d. / n.d. | 0 of 18 |
| 35 | GFQLDEYGIS | VIYADGLRTAYKDTVK | GSDTGLFMI | n.d. / n.d. / n.d. / n.d. / n.d. / n.d. | 0 of 18 |

A selection of 4 entries from above:

CDR-H1,CDR-H2,CDR-H3,log10 Kd (nM) by replicate,empty controls
GFDLKEQGIS,VIYADGMRTGYTDKVK,GQNSNGFKM,n.d. / n.d. / n.d. / n.d. / n.d. / n.d.,0 of 18
GFSLNEYGIS,VIYADGLRTEYAQNVK,GYNSSDLTK,n.d. / n.d. / n.d. / n.d. / n.d. / n.d.,1 of 18 (1.71)
GFDIQDYGIS,VIYADGSRTAYVNNAK,GLWGATLDV,n.d. / n.d. / n.d. / n.d. / n.d. / n.d.,0 of 18
GFDIEDYGIS,VIYADGMRSSYSNSFK,GLQSGNIMV,n.d. / n.d. / n.d. / n.d. / n.d. / n.d.,0 of 18

Source: Li et al. 2023 (doi:10.1038/s41467-023-39022-2), MIT Lincoln Laboratory and A-Alpha Bio; data file from the FLAb repository.